{
  "source": "patent US20010044447A1",
  "about": "(priority 1999, published 2001)",
  "test_system": "motoneurons (trophic activity produced by spinal astrocytes)",
  "type": "cell-based, Wistar rats",
  "details": "each product 0.1 μM; astrocyte monolayers exposed 24 hours, conditioned medium taken up 24 hours later; percentage of the number of motoneurons in cultures maintained with BDNF; vehicle alone 44 ± 1.41",
  "data": [
    {"smiles": "Nc1nc2ccc(OC(F)(F)F)cc2s1", "note": "[riluzole]", "values": [
      {"measurement": "Motoneuronal survival in %", "result": "68.0 ± 3", "unit": "%"}
    ]}
  ]
}
